{"source": "patent US20260207703A1", "about": "(priority 2023, published 2026)", "origin": "cited, not measured here", "details": "nonlethal dose of xylazine 100 mg/kg", "data": [{"substance": "xylazine", "values": [{"measurement": "decrease of the estimated LD50 dose for fentanyl", "result": "approximately 100 fold"}]}]}
